These results are taken from patent US20240270753A1, “HETEROCYCLIC COMPOUND FOR INHIBITING SHP2 ACTIVITY, PREPARATION METHOD THEREFOR AND USE THEREOF” (SHANGHAI INSTITUTE OF MATERIA MEDICA, CHINESE ACADEMY OF …, priority 2021, published 2024).

Amino acid sequences for entries named in this document (tags omitted).
UniProt Q06124, whole entry: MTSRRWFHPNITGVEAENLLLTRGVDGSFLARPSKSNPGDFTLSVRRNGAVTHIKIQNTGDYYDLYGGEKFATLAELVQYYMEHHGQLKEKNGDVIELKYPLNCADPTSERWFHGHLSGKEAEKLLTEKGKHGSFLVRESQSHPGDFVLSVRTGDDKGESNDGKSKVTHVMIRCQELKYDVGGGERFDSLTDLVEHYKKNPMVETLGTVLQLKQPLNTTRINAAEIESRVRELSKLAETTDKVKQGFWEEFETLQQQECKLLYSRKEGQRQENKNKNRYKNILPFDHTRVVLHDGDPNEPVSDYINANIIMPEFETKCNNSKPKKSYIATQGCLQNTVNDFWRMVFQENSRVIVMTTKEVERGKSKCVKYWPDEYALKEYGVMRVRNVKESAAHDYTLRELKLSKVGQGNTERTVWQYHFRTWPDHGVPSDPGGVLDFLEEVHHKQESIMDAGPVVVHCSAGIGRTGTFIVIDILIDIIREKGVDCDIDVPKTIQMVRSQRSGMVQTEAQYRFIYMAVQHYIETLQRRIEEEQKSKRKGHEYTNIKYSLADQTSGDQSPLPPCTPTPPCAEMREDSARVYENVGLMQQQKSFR

One experiment relates to MV4-11 cells. The experiment can be described thus: MV4-11 cell proliferation inhibition assay (MTS). The format is cell-based. Particulars: read-out: IC50, MV4-11 cell proliferation inhibition, MTS read on the third day.
Experiment [1] deals with full-length SHP2 (Met1-Arg 593) (Homo sapiens (Human), UniProt Q06124). The experiment can be described thus: Phosphatase activity inhibition assay (DiFMUP substrate). The format is biochemical. Particulars: read-out: IC50, SHP2 activity inhibition; peptide-activated full-length SHP2 0.5 nM, DiFMUP 25 μM.
Experiment [2] relates to p-ERK 1/2 (Thr202/Tyr204) in MIAPaca-2 cells. Briefly: Cell protein kinase (p-ERK) phosphorylation inhibition, AlphaLISA. Particulars: read-out: IC50, p-ERK phosphorylation inhibition, treated for 2 hours. (In Alpha technology, singlet oxygen from a donor bead excites a nearby acceptor bead.)

On to `C[C@@H]1OCC2(CCN(c3cnc(Sc4ccnc(C#CC5CC5)c4Cl)c(N)n3)CC2)[C@@H]1N`, for which the IC50 with MV4-11 cells was 0.0148 µM.

On to `C[C@@H]1OCC2(CCN(c3cnc(Sc4ccnc(C#Cc5ccncc5)c4Cl)c(N)n3)CC2)[C@@H]1N`, for which the IC50 in the experiment on MV4-11 cells stood at 0.02 µM; in experiment [1], 0.0098 µM. As to `C[C@@H]1OCC2(CCN(c3cnc(Sc4ccnc(C#Cc5cnn(C6CC6)c5)c4Cl)c(N)n3)CC2)[C@@H]1N`, the IC50 in the experiment on MV4-11 cells was 0.0041 µM.

`C[C@@H]1OCC2(CCN(c3cnc(Sc4ccnc(C#CC5CCOCC5)c4Cl)c(N)n3)CC2)[C@@H]1N`: the IC50 came to 0.0286 µM with MV4-11 cells and 0.0207 µM in experiment [1]. Taken in the same sequence, the figures for `C[C@@H]1OCC2(CCN(c3cnc(Sc4cccc(C#Cc5cccnc5)c4Cl)c(N)n3)CC2)[C@@H]1N` were 0.027 µM and 0.0072 µM. With `C[C@@H]1OCC2(CCN(c3cnc(Sc4ccnc(C#CC5CCNCC5)c4Cl)c(N)n3)CC2)[C@@H]1N`, the IC50 with MV4-11 cells was found to be 0.0949 µM. In the case of `C[C@@H]1OCC2(CCN(c3cnc(Sc4ccnc(C#Cc5ccccn5)c4Cl)c(N)n3)CC2)[C@@H]1N`, the IC50 came to 0.0031 µM in the experiment with MV4-11 cells and 0.0017 µM in experiment [2]. On to `C[C@@H]1OCC2(CCN(c3cnc(Sc4ccnc(C#Cc5cn(C)cn5)c4Cl)c(N)n3)CC2)[C@@H]1N`, for which the IC50 in the experiment with MV4-11 cells is less than 0.02 µM.

Turning to `CC(C)n1cc(C#Cc2nccc(Sc3ncc(N4CCC5(CC4)CO[C@@H](C)[C@H]5N)nc3N)c2Cl)cn1`, the IC50 in the experiment with MV4-11 cells was 0.0074 µM. The same measure, in the same setting: the value for `C[C@@H]1OCC2(CCN(c3cnc(Sc4ccnc(C#Cc5ccn(C)n5)c4Cl)c(N)n3)CC2)[C@@H]1N` was 0.0023 µM. Regarding `C[C@@H]1OCC2(CCN(c3cnc(Sc4ccnc(C#Cc5cnn(C)c5)c4Cl)c(N)n3)CC2)[C@@H]1N`, the IC50 stood at 0.0083 µM in the experiment on MV4-11 cells and 0.0032 µM in experiment [2]. `C[C@@H]1OCC2(CCN(c3cnc(Sc4ccnc(C#Cc5cccnc5)c4Cl)c(N)n3)CC2)[C@@H]1N`: the IC50 in the experiment with MV4-11 cells was 0.014 µM. The same measure, in the same setting: under `CC(=O)N1CCC(C#Cc2nccc(Sc3ncc(N4CCC5(CC4)CO[C@@H](C)[C@H]5N)nc3N)c2Cl)CC1` stands 0.0228 µM. On the same count and under the same terms, the value for `C[C@@H]1OCC2(CCN(c3cnc(Sc4ccnc(C#Cc5cnc6cccnn56)c4Cl)c(N)n3)CC2)[C@@H]1N` was 0.0235 µM. Still for that read-out and setting: under `C[C@@H]1OCC2(CCN(c3cnc(Sc4ccnc(C#Cc5cnccn5)c4Cl)c(N)n3)CC2)[C@@H]1N` stands less than 0.02 µM. In the case of `C[C@@H]1OCC2(CCN(c3cnc(Sc4cccc(C#Cc5cnn(C)c5)c4Cl)c(N)n3)CC2)[C@@H]1N`, the IC50 with MV4-11 cells amounted to 0.0103 µM; in experiment [1], 0.0098 µM.

In the case of `C[C@@H]1OCC2(CCN(c3cnc(Sc4ccnc(C#Cc5cncn5C)c4Cl)c(N)n3)CC2)[C@@H]1N`, the IC50 in the experiment with MV4-11 cells was 0.0218 µM. Same read-out and setting: the value for `CCn1cc(C#Cc2nccc(Sc3ncc(N4CCC5(CC4)CO[C@@H](C)[C@H]5N)nc3N)c2Cl)cn1` was 0.0031 µM. On to `Cc1noc(C)c1C#Cc1nccc(Sc2ncc(N3CCC4(CC3)CO[C@@H](C)[C@H]4N)nc2N)c1Cl`, for which the IC50 with MV4-11 cells is 0.0801 µM.
